{"source": "patent US10646553B2", "about": "“Use of recombinant human calcineurin B subunit” (HAIKOU QILI PHARMACEUTICAL CO., LTD., priority 2015, dated 2020)", "key": {"[1]": {"tested_on": "transplantation tumor of human gastric cancer cell MGC-803 carcinoma in situ", "assay": "Bioluminescence detection (IVIS small animal live imaging) and necropsy of orthotopic MGC-803 tumour in nude mice", "assay_type": "in vivo, BALB/c nude mice", "settings": "B, 164,000 IU/kg once daily 15 d", "excerpt": "In one embodiment of the present invention, according to the “Technical Guidelines for Non-Clinical Studies of Cytotoxic Antitumor Drugs” and “Guidelines for Pharmacodynamics of Antitumor Drugs”, IVIS Kinetics (a small animal live imaging system) was used to dynamically analyze the therapeutic effect of rhCNB for injection on the BALB/c nude mice bearing the human gastric cancer cell MGC-803 carcinoma in situ. Firstly, a BALB/c nude mouse model bearing subcutaneous transplantation tumor of human gastric cancer cell MGC-803 was established, and then a BALB/c nude mouse model bearing transplantation tumor in situ of human gastric cancer cell MGC-803 was established. […] Each experimental group is administered once daily for 15 consecutive days, except that the positive control high-dose administration group of cisplatin for injection is administered for 5 days. […] Animals were examined once using Caliper IVIS Kinetics (small animal live imaging system) before the first administration (on the administration day), every other 3 days after the first administration and on the 7th day after the last administration, respectively, and body weight was measured before each examination. At the end of the last examination, animals were sacrificed and roughly necropsied, and organs inoculated with tumor (including tumor tissues) were removed for pathological examination and immunohistochemical assay of apoptosis.\nHuman gastric cancer cell MGC-803 was routinely cultured in vitro, digested, centrifuged, and then prepared into a cell suspension with a concentration of approximately 1×10^7 cells/mL. The cells were inoculated subcutaneously into the right armpit of mice at an amount of 0.2 mL/mouse.\nWell-grown subcutaneously transplanted tumors were removed and cut into tumor tissue blocks with a size of approximately 2×2×1 mm for use. Animals to be inoculated were feed 12 hours before surgical operation and subjected to gas anesthesia with isoflurane. The anaesthetized animals were placed in supine position. The skin 2˜5 mm below the xiphoid process was cut horizontally layer-by-layer on the left side to give an opening of about 1 cm. Stomach was pull out gently using a pincette and exposed. The tumor tissue block was placed above the side near the pylorus of greater curvature of stomach of the nude mice with surgical suture #1 by “purse-string suture”, so that the tumor tissue block was wrapped therein. The skin was sutured layer by layer and disinfected by Entoiodine, and then the animals were returned back to the cage for normal feeding. 7 days after surgery, the animals were examined using the small animal live imaging system, grouped, and administrated."}, "[2]": {"assay": "Survival of tumour-bearing animals during the experiment", "assay_type": "in vivo, BALB/c nude mice", "settings": "B, 164,000 IU/kg once daily 15 d", "excerpt": "In one embodiment of the present invention, according to the “Technical Guidelines for Non-Clinical Studies of Cytotoxic Antitumor Drugs” and “Guidelines for Pharmacodynamics of Antitumor Drugs”, IVIS Kinetics (a small animal live imaging system) was used to dynamically analyze the therapeutic effect of rhCNB for injection on the BALB/c nude mice bearing the human gastric cancer cell MGC-803 carcinoma in situ. Firstly, a BALB/c nude mouse model bearing subcutaneous transplantation tumor of human gastric cancer cell MGC-803 was established, and then a BALB/c nude mouse model bearing transplantation tumor in situ of human gastric cancer cell MGC-803 was established. 90 nude mice modeled successfully were taken and evenly divided into 9 administration groups according to the values of bioluminescence, including: high-dose group of rhCNB for injection (administration dose, 40 mg/kg; administration concentration, 2 mg/mL), medium-dose group of rhCNB for injection (administration dose, 20 mg/kg; administration concentration, 1 mg/mL), low-dose group of rhCNB for injection (administration dose, 10 mg/kg; administration concentration, 0.5 mg/mL), progressively increasing-dose group of rhCNB for injection (with the first administration dose of 10 mg/kg, followed by increasing dose by one fold every 3 days, which are 10 mg/kg, 20 mg/kg, 40 mg/kg, 80 mg/kg, and 160 mg/kg successively), positive control administration group of recombinant human interleukin-2 for injection (administration dose, 164,000 IU/kg; administration concentration, 8200 IU/mL), positive control high-dose administration group of cisplatin for injection (5 mg/kg; administration concentration, 0.25 mg/mL), positive control low-dose administration group of cisplatin for injection (1 mg/kg; administration concentration, 0.05 mg/mL), positive control administration group of hydroxycamptothecin for injection (2 mg/kg; administration concentration, 0.1 mg/mL) and vehicle control group. Each experimental group is administered once daily for 15 consecutive days, except that the positive control high-dose administration group of cisplatin for injection is administered for 5 days. […] Animals were examined once using Caliper IVIS Kinetics (small animal live imaging system) before the first administration (on the administration day), every other 3 days after the first administration and on the 7th day after the last administration, respectively, and body weight was measured before each examination. At the end of the last examination, animals were sacrificed and roughly necropsied, and organs inoculated with tumor (including tumor tissues) were removed for pathological examination and immunohistochemical assay of apoptosis.\n90 inoculated nude mice were taken and randomly divided into 9 groups based on the detected bioluminescence data, that is, high-dose group of rhCNB for injection, medium-dose group of rhCNB for injection, low-dose group of rhCNB for injection, progressively increasing-dose group of rhCNB for injection, positive control administration group of recombinant human interleukin-2 for injection, positive control high-dose administration group of cisplatin for injection, positive control low-dose administration group of cisplatin for injection, positive control administration group of hydroxycamptothecin for injection and vehicle control group, 10 mice per group.\nThe high-, medium-, low-dose groups and progressively increasing-dose group of the test sample were administered once daily for 15 consecutive days;"}}, "data": [{"substance": "interleukin-2 for injection: positive control drug, recombinant human interleukin-2 for injection", "values": [{"measurement": "Number of animals in which tumor is not detectable and not observed", "setting": "[1]; d0", "value": 0}, {"measurement": "Number of animals in which tumor is not detectable and not observed", "setting": "[1]; d3", "value": 0}, {"measurement": "Number of animals in which tumor is not detectable and not observed", "setting": "[1]; d6", "value": 0}, {"measurement": "Number of animals in which tumor is not detectable and not observed", "setting": "[1]; d9", "value": 0}, {"measurement": "Number of animals in which tumor is not detectable and not observed", "setting": "[1]; d12", "value": 0}, {"measurement": "Number of animals in which tumor is not detectable and not observed", "setting": "[1]; d15", "value": 0}, {"measurement": "Number of animals in which tumor is not detectable and not observed", "setting": "[1]; recovery period d7", "value": 0}, {"measurement": "number of surviving animals", "setting": "[2]; d0 before administration", "value": "(10)"}, {"measurement": "number of surviving animals", "setting": "[2]; d3", "value": "(10)"}, {"measurement": "number of surviving animals", "setting": "[2]; d6", "value": "(8)"}, {"measurement": "number of surviving animals", "setting": "[2]; d9", "value": "(8)"}, {"measurement": "number of surviving animals", "setting": "[2]; d12", "value": "(7)"}, {"measurement": "number of surviving animals", "setting": "[2]; d15", "value": "(7)"}, {"measurement": "number of surviving animals", "setting": "[2]; d21 (7th day after last administration)", "value": "(7)"}]}]}
